Reference: patent US20260256822A1, “ENTRY-MODULATING AGENTS AND USES THEREFOR” (priority 2022, published 2026)

Test system: P. falciparum strain Pf3D7^0087/N9
Details: in vivo

Zinc Pyrithione was tested, and the “parasitemia in humanized NSG mouse model” value was “reduces parasitemia” and the “reduction of parasitemia of the mice” value was 51%.
